# Yeast mating assay B: variants of the scFv Ab-14

All variants were tested on one target, the spike HR2 peptide PDVDLGDISGINAS (SARS-CoV-2).

Each scFv is VH, the linker GGGGSGGGGSGGGGS, VL, as in the parent Ab-14, and differs from it in the CDRs of the light chain only.
VH: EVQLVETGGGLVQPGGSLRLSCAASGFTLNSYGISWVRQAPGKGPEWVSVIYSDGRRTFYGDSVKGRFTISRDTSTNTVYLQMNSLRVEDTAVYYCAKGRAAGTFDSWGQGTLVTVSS
VL: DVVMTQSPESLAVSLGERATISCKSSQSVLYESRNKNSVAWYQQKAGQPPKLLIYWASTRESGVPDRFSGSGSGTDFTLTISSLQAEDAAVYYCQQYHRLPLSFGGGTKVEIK

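The parent was found by panning a naive human phage display library on the peptide. This is the validation round: designs drawn from the data on random variants, tested in the same kind of assay. Several design methods are mixed in this list. The assay is AlphaSeq: two haploid yeast populations carry antibody and antigen on their surface. After mating in shaken culture at 30 °C for 16 h, diploids were selected and their barcode pairs sequenced. The ratio of observed to expected reads was calibrated, replicate by replicate, on BCL2-family standards whose Kd was known from biolayer interferometry. Each pool was mated in six replicate cultures.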

Each variant is given by its three light chain CDRs, as the data file delimits them; those of the parent are KSSQSVLYESRNKNSVA, WASTRES, QQYHRLPLS. Variants here have more than six changes. Values are log10 of the apparent Kd in nM; lower means stronger binding. Averages over replicates are reported, and they cover detected replicates only. Where no diploid with the target was found in that replicate, the entry reads "ND": below detection, most likely a poor binder, though not proof of it. Values of this round are not directly comparable with the first-round values of the same sequences. Empty control strains, which show no peptide, gave a signal in 4% of pairings with all light chain designs; the median was 2.64 and 95% of these signals were weaker than 1.59. No background was subtracted. The parent sequence was in this pool as ten entries: three were never detected, three once, and four in most replicates, with averages from 0.34 to 2.37. The authors' rule: three or more of the six replicates give a measured affinity, fewer mean a poor binder.

KISQSMLYEPRNWNSVA / NASTRLR / QQYHRLPLS: 0.21, 0.19, 0.11, -0.03, 0.17, 0.31 (mean 0.16).
KLSWSVGYGSRNKNSVA / EASTRMS / QQYHRLPLY: 1.86, 1.14, 1.63, 0.41, 0.99, 1.54 (mean 1.26).
KSEDGVDDESRNDNSVA / NASTRLS / QQYHRLPLS: 1.14, 1.20, 1.35, 1.31, 0.78, 0.87 (mean 1.11).
MISQMWNMGQFAINSVA / QASERNT / QQYDRLPLI: 2.07, 1.73, 1.38, 1.52, 1.47, 1.59 (mean 1.62).
KMSQEVDLESRNVNSVA / MASCRED / QQYHRLPLS: 0.59, 0.71, 1.34, 0.42, 0.59, 0.77 (mean 0.74).
KFSQGGPYEQRQKNSVA / NASQRES / QQYHRLPLS: 0.08, -0.03, -0.04, -0.35, -0.06, -0.07 (mean -0.08).
HLSLRLSYGNMLNKAVA / EVQARVT / QQYARLPLL: ND, ND, ND, ND, ND, 1.79.
KLYQSTAMTSRKKNNVA / DLNERER / QQYFRLPLS: 0.47, -0.04, 0.43, 0.13, 0.02, 0.68 (mean 0.28).
FLAYASDQTGLQKNNIA / QVNLLEN / QQYERLPLA: 1.38, 0.66, 0.47, 0.19, 0.58, 1.58 (mean 0.81).
TIGQMFNGESRNRNSVA / QAETRES / QSYDRLPLS: 1.11, 0.68, 0.87, 0.72, 0.94, 0.74 (mean 0.84).
KLSWKSLHGDLRWSAVA / NESVRLA / QQYFRLPIQ: 0.95, 0.51, 0.81, 0.62, 0.93, 1.06 (mean 0.81).
NLSGMTAHETVKEKNIA / ERSTREA / QQYNRLPLS: 0.14, -0.09, -0.09, -0.45, -0.39, -0.10 (mean -0.16).
MFSQLVYTGSRTRNAVA / QASTREN / QQYHHLPLS: 1.49, 0.86, 1.61, 0.91, 0.82, ND (mean 1.14).
QLGDEQVGETLMADNIA / HDAFRAD / QQYFRLPLL: 1.59, 1.31, 2.45, 1.84, 2.88, 1.91 (mean 2.00).
KLKLSLSFSLRGTRAIA / DGSTRAH / QQYHRLPLT: 1.21, 0.66, 0.69, 0.62, 0.96, 0.93 (mean 0.85).
QIYQAMHTLMQMKNNVA / DVNERGD / QQYFRLPLS: 0.40, 0.14, 0.28, 0.09, 0.10, 0.40 (mean 0.23).
QFDQAYRVGALWTDSIA / HASMRVQ / QCYNRLPLM: 1.25, 1.25, 0.93, 1.01, 1.87, 2.02 (mean 1.39).
HITYGMQVAGRHSKSIA / QAEERAK / QQYDRLPLI: 0.82, 1.07, 0.90, 0.97, 0.78, 1.07 (mean 0.94).
TISGVMQQMTHSKSNVA / EVSTRLD / QQYVRLPLA: 0.46, 0.72, 0.43, 0.44, 0.63, 1.38 (mean 0.67).
KIGHGLTTESYNRNSVA / QTETRVS / QHYHRLPLS: 3.14, 2.62, 2.18, 2.36, 1.41, 2.08 (mean 2.30).
RVSSMLMAGGIHYNNIA / NTKVLEY / QQYMRLPLG: 0.61, 0.36, 1.20, 0.18, 0.59, 0.35 (mean 0.55).
KSSWSVEYEDRASNSVA / NASQREW / QQYHRLPLS: 0.18, 0.29, 0.10, 0.11, 0.36, 0.37 (mean 0.23).
KLSFSVLYGKRNKNSVA / QASQRMS / QQYHRLPLS: 1.17, 0.56, 1.05, 0.74, 0.81, 0.87 (mean 0.87).
IVSQLMLWGKSAKNSIA / EAVTRFN / QQYDRLPLF: ND, 2.76, ND, 1.76, ND, 2.19 (mean 2.24).
KLSQSVRMESFNKNSVA / ENSTREA / QDYHRLPLS: ND, 2.23, 2.70, ND, 2.28, 3.73 (mean 2.73).
MIQQGENRDSEHYNSIA / NGHERPI / QQYYTLPLV: 0.71, 0.55, 0.77, 0.43, 0.51, 0.78 (mean 0.62).
HLSINMPQQHYMYDSIA / HSDRREV / QQYYRLPLA: 0.87, 0.67, 0.55, 1.04, 0.49, 0.65 (mean 0.71).
KWMQSVDQESRNKNSVA / HASTRMQ / QQYHRLPLS: 1.08, 1.28, 1.15, 1.06, 1.10, 1.63 (mean 1.21).
KLRQTTLYEPGSKNSVA / WKSTRES / QQYHRLPPS: ND, ND, ND, ND, ND, ND.
KLTAKQNPYDQNYSNIA / EETNSLQ / QQYHHLPLS: ND, ND, ND, ND, 4.08, 2.20 (mean 3.14).
KMPQSWLYDSRNSNSVA / HASQRMS / QQYHRLPLS: 0.80, 0.34, 0.47, 0.70, 0.26, 0.87 (mean 0.57).
KSDQSVLYESVNKGSVA / WASTREL / QQYDRWPLQ: ND, ND, ND, ND, 1.90, ND.
KLVQFMNRGTHHTSNIA / DAQNRTD / QQYYRLPLA: 0.75, 1.06, 0.62, 0.55, 0.64, 0.99 (mean 0.77).
KVSQGIFDGKRNSHSIA / EVSELCT / QQYSRLPLE: 0.65, 0.18, 0.59, 0.51, 0.40, 0.41 (mean 0.46).
MVNGIMDHLSKNTNNVA / ETSTRNS / QQYDRLPLA: 0.55, -0.02, 0.38, 0.14, 1.19, 0.40 (mean 0.44).
KVEGSHLYESRMGNSVA / NASQRED / QQYHRLPLS: 0.35, 0.24, 0.19, -0.06, 0.26, 0.42 (mean 0.24).
MFSQLFMYGSRNYNSVA / QASTREE / QQYDRLPLI: 0.65, 0.58, 0.81, 0.33, 0.37, 0.27 (mean 0.50).
KLVNFMNRGTHHTSNIA / DAQERLD / QQYYRLPLA: 1.70, 1.27, 0.15, 0.52, 0.44, 0.96 (mean 0.84).
TISNTFMMENQFKNSVA / QASTRES / QCYDRLPLS: ND, ND, 1.49, ND, 2.03, 2.25 (mean 1.92).
KLSNWYFDSYGNYQSVA / ENEATSN / QQYSLLPLS: ND, ND, ND, ND, ND, ND.
SFHEINMEGLATNANVA / NASQLFE / QSYFRLPLQ: 0.54, 0.62, 0.65, 0.67, 0.59, 0.58 (mean 0.61).
KVSQLDNGESRNKNSVA / HASTRLS / QQYHRLPLS: 0.97, 0.51, 0.41, 0.38, 0.68, 0.57 (mean 0.59).

3 of these entries, quoted again:

RVSSMLMAGGIHYNNIA / NTKVLEY / QQYMRLPLG: 0.61, 0.36, 1.20, 0.18, 0.59, 0.35 (mean 0.55).
KVSQLDNGESRNKNSVA / HASTRLS / QQYHRLPLS: 0.97, 0.51, 0.41, 0.38, 0.68, 0.57 (mean 0.59).
KLSNWYFDSYGNYQSVA / ENEATSN / QQYSLLPLS: ND, ND, ND, ND, ND, ND.

Values reported by Li et al. 2023, doi:10.1038/s41467-023-39022-2 (FLAb copy).